Experimental data from patent publication EP2545917B1, “NOVEL EP4 AGONIST” (Kaken Pharmaceutical Co., Ltd., priority 2010, dated 2011).

Sequences of proteins named here, by UniProt entry; tags and fusion partners are left off. A change or cut given only in a name is not applied to a line headed by its entry.
UniProt P43116: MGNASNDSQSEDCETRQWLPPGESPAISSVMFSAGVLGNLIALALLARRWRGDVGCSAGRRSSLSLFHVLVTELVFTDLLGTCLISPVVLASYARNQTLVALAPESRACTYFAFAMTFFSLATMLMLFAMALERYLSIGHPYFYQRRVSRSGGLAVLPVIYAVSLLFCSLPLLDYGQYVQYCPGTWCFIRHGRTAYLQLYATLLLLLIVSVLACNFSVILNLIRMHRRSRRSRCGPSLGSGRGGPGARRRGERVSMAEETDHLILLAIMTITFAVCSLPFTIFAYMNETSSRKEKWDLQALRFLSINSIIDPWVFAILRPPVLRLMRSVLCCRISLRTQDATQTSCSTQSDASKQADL
UniProt P32240: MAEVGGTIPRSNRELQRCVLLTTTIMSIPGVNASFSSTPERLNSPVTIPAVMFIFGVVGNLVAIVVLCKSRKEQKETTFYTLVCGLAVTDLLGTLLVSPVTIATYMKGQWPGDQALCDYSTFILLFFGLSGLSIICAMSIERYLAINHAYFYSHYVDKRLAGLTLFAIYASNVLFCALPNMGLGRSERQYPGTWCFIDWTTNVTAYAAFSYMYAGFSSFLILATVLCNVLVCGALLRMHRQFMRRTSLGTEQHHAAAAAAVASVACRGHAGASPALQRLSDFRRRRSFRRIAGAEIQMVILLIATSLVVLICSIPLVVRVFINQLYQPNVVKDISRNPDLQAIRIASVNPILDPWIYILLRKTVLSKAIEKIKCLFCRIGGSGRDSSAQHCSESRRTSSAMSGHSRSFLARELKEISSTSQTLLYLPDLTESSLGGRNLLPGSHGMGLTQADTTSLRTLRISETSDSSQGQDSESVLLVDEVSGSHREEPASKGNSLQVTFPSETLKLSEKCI

What was measured:
Human EP2 = molecular target: T1, Human EP2 (Homo sapiens, UniProt P43116); assay: Receptor affinity, tritium-labeled PGE2 binding to membranes of transfected COS-7 cells
T1 construct: expressed in transfected cells; host or cells: COS-7
Protocol: (§1) PG receptor affinity of compound F and compound J of the present invention was evaluated. Compound F used was one synthesized in Example 9, and compound J was prepared by separating and purifying the compound synthesized in Example 14 with a column (the same preparations were used in the following Examples). COS-7 cells were transfected with the genes of mouse EP4, human EP1-4 or human IP to overexpress the receptor and then the cell membranes were collected. As a labeled ligand, tritium-labeled PGE2 was used for EPs; tritium-labeled iloprost, for IP. The dissociation constant Kd value was obtained and inhibition constant Ki value of each test compound was determined in a conventional method. As a reference control, PGE2 was used for EPs; beraprost sodium (BPS), for IP.

Mouse EP4 = molecular target: T2, Mouse EP4 (Mus musculus, UniProt P32240); assay: as above
T2 construct: expressed in transfected cells; host or cells: COS-7
Protocol: as §1

`CCCCC[C@H](O)/C=C/[C@H]1[C@H](O)CC(=O)[C@@H]1C/C=C\CCCC(=O)O` [PGE2, reference compound] showed a Ki (Human EP2) of 6 nM and a Ki (Mouse EP4) of 2.6 nM.
